Data on 2 compounds can be found in ChEMBL document CHEMBL4043273, “Phenotypic Optimization of Urea-Thiophene Carboxamides To Yield Potent, Well Tolerated, and Orally Active Protective Agents against Aminoglycoside-Induced Hearing Loss” (J Med Chem, 2018).

By UniProt entry, the sequences of proteins in these tests, tags left out. Where a name states a change or a piece, a line headed by the entry shows the natural chain unless it says otherwise.
UniProt Q12809: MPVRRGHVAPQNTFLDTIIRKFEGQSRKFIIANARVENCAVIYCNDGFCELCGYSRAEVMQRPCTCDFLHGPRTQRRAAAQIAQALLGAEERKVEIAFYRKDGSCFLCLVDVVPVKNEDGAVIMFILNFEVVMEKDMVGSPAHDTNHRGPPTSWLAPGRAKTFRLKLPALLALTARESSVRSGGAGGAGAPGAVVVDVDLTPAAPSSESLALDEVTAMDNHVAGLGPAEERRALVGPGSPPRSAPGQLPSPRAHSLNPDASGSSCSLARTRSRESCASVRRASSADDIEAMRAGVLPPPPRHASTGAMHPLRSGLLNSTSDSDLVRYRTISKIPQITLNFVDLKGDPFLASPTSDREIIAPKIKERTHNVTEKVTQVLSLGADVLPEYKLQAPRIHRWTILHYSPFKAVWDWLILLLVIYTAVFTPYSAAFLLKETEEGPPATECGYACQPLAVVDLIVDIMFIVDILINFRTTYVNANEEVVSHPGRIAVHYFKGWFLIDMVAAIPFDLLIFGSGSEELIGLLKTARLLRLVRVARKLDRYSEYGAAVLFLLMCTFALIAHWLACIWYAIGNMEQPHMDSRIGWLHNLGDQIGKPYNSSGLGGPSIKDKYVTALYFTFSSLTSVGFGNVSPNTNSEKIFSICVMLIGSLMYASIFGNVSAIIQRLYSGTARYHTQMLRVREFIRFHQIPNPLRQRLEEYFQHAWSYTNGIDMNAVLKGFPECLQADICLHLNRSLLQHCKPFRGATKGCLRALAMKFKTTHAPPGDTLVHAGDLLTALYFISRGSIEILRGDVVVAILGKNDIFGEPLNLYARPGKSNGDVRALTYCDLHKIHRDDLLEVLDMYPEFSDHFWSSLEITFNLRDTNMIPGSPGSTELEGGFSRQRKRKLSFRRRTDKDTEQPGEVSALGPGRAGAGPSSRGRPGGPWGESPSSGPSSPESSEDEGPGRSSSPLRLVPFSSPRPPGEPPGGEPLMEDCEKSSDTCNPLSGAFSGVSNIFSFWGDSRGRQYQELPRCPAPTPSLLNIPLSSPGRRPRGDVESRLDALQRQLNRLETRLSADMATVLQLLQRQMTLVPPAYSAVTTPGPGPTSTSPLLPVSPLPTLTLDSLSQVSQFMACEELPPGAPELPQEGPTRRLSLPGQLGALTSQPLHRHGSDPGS

For one assay, the species on record is Danio rerio. The assay can be described thus: Protection against neomycin-induced hair cell death in AB zebra fish larvae assessed as increase in hair cell survival at 12.5 uM preincubated for 1 hr followed by neomycin challenge for 1 hr by DASPEI staining-based epifluorescence dissecting microscopic method relative to control. In kind it is functional.
The target in assay [1] is Voltage-gated inwardly rectifying potassium channel KCNH2 (Homo sapiens, UniProt Q12809). Conditions: hek293.

As usually defined, the IC50 is the concentration that gives 50% inhibition.

Regarding `CCN1CCc2c(sc(NC(=O)Nc3ccc(Cl)cc3)c2C(N)=O)C1.Cl`, in the assay filed under Danio rerio, the “%max” value worked out at 94%.
In assay [1], `CN1[C@@H]2CC[C@H]1c1c(sc(NC(=O)Nc3ccc(Cl)cc3)c1C(N)=O)C2.Cl` had an IC50 of 5.6 µM.
